# In PubChem BioAssay AID1823 (The Scripps Research Institute Molecular Screening Center, 2009):
# Only a part is listed here, and it is no random draw. Activity calls are given as the source filed them. Rule as the data show it: active = inhibition above about 75%; inactive = the rest.
# Assay: counter-screen for Nox1 inhibitors: inhibitors of luminol chemiluminescence (AID 1823)
# Conditions: HRP/luminol/H2O2 chemiluminescence counterscreen; at 6.7 µM; stronger effect = higher value
row,SMILES,inhibition
1,Cc1ccccc1NC1CC(C)(C)NC(C)(C)C1,inactive: -3.61%
